In patent US20240156817A1, “TREATMENTS FOR PAIN” (Sevenless Therapeutics Limited, priority 2021, published 2024):

Key:
[1] = test system: Nerve Growth Factor (NGF) stimulated phospho-ERK1/2 activation in PC-12 cells; experiment: Inhibition of NGF stimulated pERK1/2 activation in the PC-12 cell line (HTRF), alone and combined with anti-NGF; type: cell-based, rat
[2] = test system: CFA-(Complete Freunds Adjuvant) induced hypersensitivity; experiment: CFA-induced hypersensitivity using weight-bearing in the C57BI6 mouse; settings: in vivo
Description: On 3 days before CFA dose: habituation to WB apparatus, baseline readings are taken once. 24 h before dosing: intraplantar injection of 20 μl of CFA 1.5 mg/ml to the left hind paw. 1 h before dosing: post-CFA readings are taken for WB. […] Naive animals distribute their body weight equally between the two hind paws. However, when a painful insult is given to one hindpaw (i.e., sciatic nerve constriction or CFA intraplantar injection), the weight is re-distributed so that less weight is put on the affected paw (with a decrease in weight bearing on the injured paw). Animals were placed in the incapacitance tester (Linton Instruments, UK) with the hind paws on separate sensors. The average forces exerted by the left and the right hindlimb were recorded over 2 s. Weight-bearing readings were taken for both left and right hind paws. The ratio ipsilateral/contralateral was calculated and expressed in % (mean±s.e.m.). Statistics: Two-Way RM Mixed model (treatment×repeated factor: time) (InVivoStat v3.7.0.0)

COc1cc2nc(C)nc(N[C@H](C)c3cc(N)cc(C(F)(F)F)c3)c2cc1O[C@H]1CCOC1 [BI3406, N-[(1R)-1-[3-amino-5-(trifluoromethyl)phenyl]ethyl]-7-methoxy-2-methyl-6-[(3S)-oxolan-3-yl]oxyquinazolin-4-amine]
efficacy [1]: 40% | efficacy in the in vitro model of pain (NGF stimulated PC12 assay), in words [1]: efficacy comparable with the pain drug candidate Tanezumab | IC50 ([1]; Rattus norvegicus, PC-12): 10 to 20 nM | efficacy in a pain model, in words ([2]; 10 mg/kg): efficacy | efficacy / analgesic effect in a pain model, in words ([2]; 25 mg/kg): little to no efficacy; also recorded: no limited analgesic effect on its own | weight-bearing, ratio ipsilateral/contralateral (mean) ([2]; 25 mg/kg): 65.06% and 68.18% and 69.64% and 67.26% | weight-bearing, ratio ipsilateral/contralateral (mean) ([2]; 50 mg/kg): 74.11% and 71.76% and 77.59% and 78.09% | weight-bearing, ratio ipsilateral/contralateral (mean) ([2]; 100 mg/kg): 84.56% and 66.96% and 81.75% and 91.15%

Values joined by “and” are separate entries in the source; they are usually repeats but may differ in a detail not shown here. Equal values may be shown once. “Also recorded” adds a separate entry of the source.
